Values quoted from earlier work, collected in patent US10753947B2, “Methods for screening voltage-gated proteins” (D.E. Shaw Research, LLC, priority 2012, dated 2020).

Sequences of proteins named here, by UniProt entry; tags and fusion partners are left off.
UniProt P22001, whole entry: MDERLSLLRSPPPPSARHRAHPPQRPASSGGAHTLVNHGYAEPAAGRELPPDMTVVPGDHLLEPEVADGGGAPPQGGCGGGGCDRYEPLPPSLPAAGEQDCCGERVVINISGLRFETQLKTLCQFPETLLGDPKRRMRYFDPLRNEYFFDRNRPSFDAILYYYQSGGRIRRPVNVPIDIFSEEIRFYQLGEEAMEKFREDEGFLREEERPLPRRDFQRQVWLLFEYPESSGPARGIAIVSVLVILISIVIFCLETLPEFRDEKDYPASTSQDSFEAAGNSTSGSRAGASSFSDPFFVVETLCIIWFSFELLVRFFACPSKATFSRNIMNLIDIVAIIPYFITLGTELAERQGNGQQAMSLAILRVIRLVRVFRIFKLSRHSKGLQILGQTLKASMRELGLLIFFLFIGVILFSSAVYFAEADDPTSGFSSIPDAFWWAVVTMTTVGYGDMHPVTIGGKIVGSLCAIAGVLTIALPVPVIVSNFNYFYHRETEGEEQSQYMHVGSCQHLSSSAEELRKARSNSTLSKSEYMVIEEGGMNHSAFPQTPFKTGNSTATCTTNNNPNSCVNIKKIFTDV

Molecular target: Kv1.3 (Homo sapiens, UniProt P22001)
Details: Table 2, modulating Kv1.3 ion conductance; tested form: HCl; cited from earlier work

## CCCN=c1ccn(Cc2ccccc2)c2cc(Cl)ccc12
  IC50: 0.2 µM
